Assay results taken from US20140350081A1, “INSECT G-COUPLED RECEPTORS USEFUL AS TARGETS FOR INSECTICIDES AND COMPOUNDS AND REAGENTS IDENTIFIED USING THE SAME” (priority 2011, published 2014).
Read-outs that look alike come from different tables or passages of the source.

Sequences of proteins named here, by UniProt entry; tags and fusion partners are left off.
UniProt H6D5H2, entry or part of it: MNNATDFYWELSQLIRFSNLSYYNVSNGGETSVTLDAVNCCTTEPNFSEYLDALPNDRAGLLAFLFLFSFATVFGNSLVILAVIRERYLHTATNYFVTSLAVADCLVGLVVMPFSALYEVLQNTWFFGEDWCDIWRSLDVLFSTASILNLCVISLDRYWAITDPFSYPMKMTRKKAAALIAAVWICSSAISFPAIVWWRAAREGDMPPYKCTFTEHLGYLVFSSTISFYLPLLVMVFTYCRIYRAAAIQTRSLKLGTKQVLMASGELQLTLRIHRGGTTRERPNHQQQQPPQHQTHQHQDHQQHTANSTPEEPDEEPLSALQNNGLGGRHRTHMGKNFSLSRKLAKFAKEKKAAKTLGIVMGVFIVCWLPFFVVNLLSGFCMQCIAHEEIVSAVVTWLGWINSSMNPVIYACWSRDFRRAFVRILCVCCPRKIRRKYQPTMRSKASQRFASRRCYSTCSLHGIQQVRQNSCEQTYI
UniProt P21728, whole entry: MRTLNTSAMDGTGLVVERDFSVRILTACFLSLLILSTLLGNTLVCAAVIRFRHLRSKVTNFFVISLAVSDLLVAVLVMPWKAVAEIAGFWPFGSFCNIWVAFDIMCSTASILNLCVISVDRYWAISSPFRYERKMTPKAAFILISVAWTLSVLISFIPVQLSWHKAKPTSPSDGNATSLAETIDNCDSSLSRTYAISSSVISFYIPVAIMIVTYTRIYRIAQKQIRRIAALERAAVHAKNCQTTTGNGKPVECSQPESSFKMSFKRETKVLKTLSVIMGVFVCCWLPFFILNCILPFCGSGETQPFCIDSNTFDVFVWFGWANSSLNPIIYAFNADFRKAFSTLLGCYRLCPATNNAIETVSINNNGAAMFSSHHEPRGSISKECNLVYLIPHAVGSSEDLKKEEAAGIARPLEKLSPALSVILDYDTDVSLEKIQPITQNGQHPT
UniProt A0ACM8DGL0, entry or part of it: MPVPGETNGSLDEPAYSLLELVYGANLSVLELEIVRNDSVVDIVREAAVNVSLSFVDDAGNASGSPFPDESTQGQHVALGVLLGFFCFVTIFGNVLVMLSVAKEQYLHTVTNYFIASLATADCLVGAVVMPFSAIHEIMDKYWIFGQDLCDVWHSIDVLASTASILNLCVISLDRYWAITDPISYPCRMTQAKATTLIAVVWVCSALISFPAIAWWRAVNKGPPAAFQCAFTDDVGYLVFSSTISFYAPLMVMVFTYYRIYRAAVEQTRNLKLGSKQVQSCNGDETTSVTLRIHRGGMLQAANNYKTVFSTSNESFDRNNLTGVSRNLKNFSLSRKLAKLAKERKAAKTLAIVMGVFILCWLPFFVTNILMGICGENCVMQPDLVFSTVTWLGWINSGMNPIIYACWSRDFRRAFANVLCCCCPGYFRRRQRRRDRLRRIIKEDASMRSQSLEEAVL

Assays:
AaDOP2 [1] = biological target: T1, AaDOP2 (Aedes aegypti, UniProt H6D5H2); experiment: LOPAC1280 antagonist screen in HEK-CRELuc-Aadop2 cells; assay type: cell-based
[2] = biological target: T2, human D1 dopamine receptor (hD1) (Homo sapiens, UniProt P21728); experiment: cAMP accumulation secondary assay, hD1-expressing cells; assay type: cell-based, H. sapiens; conditions: read-out: IC50 value (at 100 nM dopamine for hD1), direct cAMP accumulation
T2 construct: expressed in transfected cells

AaDOP2 [3] = biological target: T1, AaDOP2
Isdop2 = Isdop2 (Ixodes scapularis, UniProt A0ACM8DGL0); experiment: cell-based
AaDOP2 [4] = biological target: T1, AaDOP2; experiment: cell-based
AaDOP2 [5] = biological target: T1, AaDOP2; experiment: HTRF cAMP accumulation concentration response assay (Cisbio Dynamic 2); assay type: cell-based; conditions: IC50 ± S.E.M. (nM)
[6] = 10 μM compound, 300 nM dopamine, quadruplicate

## (±)-Butaclamol hydrochloride
AaDOP2 [1]
  % of the SCH23390 effect: 81%

## OCCN1CCN(CC/C=C2/c3ccccc3Sc3ccc(C(F)(F)F)cc32)CC1 [cis-(Z)-Flupenthixol, ((Z)-2-(4-(3-(2-(trifluoromethyl)-9H-thioxanthen-9-ylidene)propyl)piperazin-1-yl)ethanol)]
[2]
  IC50: 11 nM
AaDOP2 [3]
  Relative fold selectivity for AaDOP2 vs. hD1: 0.55 fold

## CC(CN1c2ccccc2Sc2ccccc21)N(C)C (racemic) [Promethazine, (RS)-N,N-dimethyl-1-(10H-phenothiazin-10-yl)propan-2-amine]
Isdop2; read-out: % Inhibition (of response to dopamine), Isdop2 screen
  inhibition at 10 µM: 74%

## OCCN1CCN(CCCN2c3ccccc3Sc3ccc(C(F)(F)F)cc32)CC1 [Fluphenazine, 2-[4-[3-[2-(trifluoromethyl)-10H-phenothiazin-10-yl]propyl]piperazin-1-yl]ethanol]
AaDOP2 [1]
  % inhibition of DA activity (Aedes cell-based assay screen): 82%
  % of the SCH23390 effect: 82%

## Cc1nc2n(c(=O)c1CCN1CCC(c3noc4cc(F)ccc34)CC1)CCCC2 [Risperidone, 4-[2-[4-(6-fluorobenzo[d]isoxazol-3-yl)-1-piperidyl]ethyl]-3-methyl-2,6-diazabicyclo[4.4.0]deca-1,3-dien-5-one]
AaDOP2 [1]
  % inhibition of DA activity (Aedes cell-based assay screen): 83%
  % of the SCH23390 effect: 83%

## CN1C2CCC1CC(OC(c1ccccc1)c1ccccc1)C2 (stereo not drawn) [Benztropine, (3-endo)-3-(diphenylmethoxy)-8-methyl-8-azabicyclo[3.2.1]octane]
AaDOP2 [1]; [6]
  % of the SCH23390 effect: 89%

## CC(C)(C)[C@]1(O)CCN2CC3c4ccccc4CCc4cccc(c43)[C@@H]2C1 (single isomer, unassigned; (+)) [(+)-Butaclamol, 3-(1,1-dimethylethyl)-2,3,4,4a,8,9,13b,14-octahydro-1H-benzo[6,7]cyclohepta[1,2,3-de]pyrido[2,1-a]isoquinolin-3-ol]
AaDOP2 [4]
  IC50: 480 ± 33 nM
AaDOP2 [1]; [6]
  % of the SCH23390 effect: 87%
AaDOP2 [1]; LOPAC1280 screen hits
  % inhibition of DA activity (Aedes cell-based assay screen): 87%
AaDOP2 [5]
  IC50: 190 ± 27 nM
Isdop2
  % Inhibition (of response to dopamine), Isdop2 screen: 93%
